Amino acid sequences for entries named in this document (tags omitted). Residues count along the entry.
UniProt Q92915, 1-252 isoform Q92915-2: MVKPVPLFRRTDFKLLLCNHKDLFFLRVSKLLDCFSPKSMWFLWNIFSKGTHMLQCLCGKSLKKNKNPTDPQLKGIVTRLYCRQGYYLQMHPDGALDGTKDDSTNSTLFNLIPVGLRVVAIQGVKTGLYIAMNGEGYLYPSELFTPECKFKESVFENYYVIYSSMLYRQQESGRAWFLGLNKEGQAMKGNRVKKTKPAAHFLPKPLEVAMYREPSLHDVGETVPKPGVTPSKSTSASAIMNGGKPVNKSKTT
UniProt Q9UQD0, 1763-1976 limits assumed: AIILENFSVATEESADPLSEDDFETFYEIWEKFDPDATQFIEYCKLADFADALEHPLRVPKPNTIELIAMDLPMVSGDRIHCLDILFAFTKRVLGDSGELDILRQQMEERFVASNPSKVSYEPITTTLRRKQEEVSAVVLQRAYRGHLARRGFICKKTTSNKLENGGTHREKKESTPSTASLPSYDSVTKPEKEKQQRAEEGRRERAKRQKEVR
UniProt P08659, whole entry N50D/N119G/S548I/K549A/L550V, looked up: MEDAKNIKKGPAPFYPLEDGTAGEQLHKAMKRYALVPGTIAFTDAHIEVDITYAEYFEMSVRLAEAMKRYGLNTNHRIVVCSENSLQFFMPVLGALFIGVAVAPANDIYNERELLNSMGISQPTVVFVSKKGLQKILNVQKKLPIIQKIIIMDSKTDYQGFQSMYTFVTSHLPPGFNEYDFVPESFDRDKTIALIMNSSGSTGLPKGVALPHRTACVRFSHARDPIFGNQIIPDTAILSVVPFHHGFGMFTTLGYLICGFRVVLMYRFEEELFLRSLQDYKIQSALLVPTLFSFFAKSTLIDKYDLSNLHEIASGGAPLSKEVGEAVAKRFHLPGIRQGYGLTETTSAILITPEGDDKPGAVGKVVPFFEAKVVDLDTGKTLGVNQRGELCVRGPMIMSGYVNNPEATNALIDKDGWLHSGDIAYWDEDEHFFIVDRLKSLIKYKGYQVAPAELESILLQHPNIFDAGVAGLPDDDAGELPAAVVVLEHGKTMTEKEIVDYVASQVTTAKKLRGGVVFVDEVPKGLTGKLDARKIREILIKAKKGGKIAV

In article PMC6858373 (Scientific Reports, 2019):

Assays:
[1] = molecular target: FGF14:Nav1.6 C-tail complex (Homo sapiens, UniProt Q92915+Q9UQD0); test: Split-luciferase complementation assay (LCA) in Clone V double stable HEK293 cells
[2] = molecular target: full-length P. pyralis luciferase (Photinus pyralis, UniProt P08659, K549A/L550V/N119G/N50D/S548I)
in vitro = conditions: human
[3] = CC_NCI screening, full-length luciferase counter-screen, normalized to on-plate 0.3% DMSO controls
[4] = CC_NCI screening, biological replicate Set 2, normalized to on-plate 0.3% DMSO controls
[5] = CC_NCI screening, biological replicate Set 2, normalized to on-plate 0.3% DMSO controls (n=16 per plate)

Compound: O=c1cc(N2CCOCC2)nc2c3ccccc3ccn12 [COMPOUND 401]
- Toxicity Assay Z-score (CTB cell viability) (Clone V cells): 2.21

Compound: Cc1c2oc3c(C)ccc(C(=O)N[C@@H]4C(=O)N[C@H](C(C)C)C(=O)N5CCC[C@H]5C(=O)N(C)CC(=O)N(C)[C@@H](C(C)C)C(=O)O[C@@H]4C)c3nc-2c(C(=O)N[C@@H]2C(=O)N[C@H](C(C)C)C(=O)N3CCC[C@H]3C(=O)N(C)CC(=O)N(C)[C@@H](C(C)C)C(=O)O[C@@H]2C)c(N)c1=O [Dactinomycin]
- Split Luciferase Assay % Lum Set 1 ([1]; CC_NCI screening, LCA luminescence, biological replicate Set 1, normalized to on-plate 0.3% DMSO controls (n=16 per plate)): 60.12%
- Split Luciferase Assay Z-score Set 1 ([1]; CC_NCI screening, LCA, biological replicate Set 1, normalized to on-plate 0.3% DMSO controls): -3.22

Compound: COc1cccc2c1C(=O)c1c(O)c3c(c(O)c1C2=O)C[C@@](O)(C(=O)CO)C[C@@H]3O[C@H]1C[C@H](N)[C@H](O)[C@H](C)O1 [Doxorubicin hydrochloride]
- Luciferase Assay Z-score [2, 3]: -2.72

Compound: CS(=O)(=O)CCNCc1ccc(-c2ccc3ncnc(Nc4ccc(OCc5cccc(F)c5)c(Cl)c4)c3c2)o1 [Lapatinib]
- Split Luciferase Assay % Lum Set 1 ([1]; CC_NCI screening, biological replicate Set 1, normalized to on-plate 0.3% DMSO controls (n=16 per plate)): 116.65%

Compound: O=[N+]([O-])c1ccc(-c2nc(-c3ccncc3)c(-c3ccc(F)cc3)[nH]2)cc1 [PD 169316]
- Toxicity Assay Z-score (CTB cell viability) (Clone V cells; human): 0.13
- viability (in vitro): 101%

Compound: C[C@@H](Oc1cc(-c2cnn(C3CCNCC3)c2)cnc1N)c1c(Cl)ccc(F)c1Cl [PF-2341066]
- Luciferase Assay % Lum ([2]; CC_NCI screening, full-length luciferase counter-screen luminescence, normalized to on-plate 0.3% DMSO controls): 78.75%
- Luciferase Assay Z-score [2, 3]: -2.72

Compound: Cc1ccc([N+](=O)[O-])cc1S(=O)(=O)N(C)/N=C/c1cnc2ccc(Br)cn12 [PIK 75, reference compound]
- Split Luciferase Assay Z-score Set 2 [1, 4]: -3.82
- Split Luciferase Assay %Lum Set 2 [1, 5]: 53.06%

Compound: CS(=O)(=O)c1ccc(C2=C(c3ccccc3)C(=O)OC2)cc1 [ROFECOXIB]
- Split Luciferase Assay Z-score Set 2 [1, 4]: -3.82
- Split Luciferase Assay %Lum Set 2 [1, 5]: 53.06%

Compound: CHIR 98014
- Luciferase Assay % Lum [2]: 78.77%
- Luciferase Assay Z-score [2]: -2.72
- Split Luciferase Assay %Lum Avg [1]: 56.59%
- Split Luciferase Assay %Lum Set 2 [1]: 53.06%
- Split Luciferase Assay Z-score Set 2 [1]: -3.82

Structures can show the parent of a compound that is named as a salt. Where two headings read alike, the source gives them in different places.
